This is an account of results in US7371411B2, “Methods for production of the oxidized glutathione composite with CIS-diamminedichloroplatinum and pharmaceutical compositions based thereof regulating metabolism, proliferation, differentiation and apoptotic mechanisms for normal and transformed cells” (Novelos Therapeutics, Inc., priority 1998, dated 2008).

For this series the following is noted: single intravenous introduction, 2 and 20 mg/kg; blood serum, liver, kidneys, spleen, lymphocytes.

For “bis-(γ-L-glutamyl)-L-cysteinyl-bis-glycine [GSSG]”, the “concentration to the 10th minute relative to the initial one” value was “almost equal to the initial one”.
